Values joined by “and” are separate entries in the source; they are usually repeats but may differ in a detail not shown here. Equal entries are not always repeated. Bounds are passed on as bounds.

The target of test [1] is Kappa-type opioid receptor (Homo sapiens, UniProt P41145). As to the kind of experiment: Inhibition of [3H]U-69593 binding to human Opioid receptor kappa 1.
Test [2] concerns the target Delta-type opioid receptor (Homo sapiens, UniProt P41143). The test can be described thus: Inhibition of [3H]naltrindole binding to human Opioid receptor delta 1.
The target of test [3] is T1, Nociceptin receptor (Homo sapiens, UniProt P41146). The test can be described thus: Agonist activity as stimulation of [35S]-GTP-gamma binding to human Opioid receptor like 1.
Test [4] deals with T1, Nociceptin receptor. As to the kind of experiment: Inhibition of [3H]nociceptin binding to human Opioid receptor like 1.
The target of test [5] is T2, Mu-type opioid receptor (Homo sapiens, UniProt P35372). The test can be described thus: Agonist activity as stimulation of [35S]-GTP-gamma binding to human Opioid receptor mu 1; Partial agonist.
Test [6] addresses T2, Mu-type opioid receptor. The test can be described thus: Inhibition of [3H]diprenorphine binding to human Opioid receptor mu 1.
Test [7] deals with T2, Mu-type opioid receptor. The test can be described thus: Agonist activity as stimulation of [35S]-GTP-gamma binding to human Opioid receptor mu 1.
Test [8] has as its target T2, Mu-type opioid receptor. The test can be described thus: Agonist activity as stimu;ation of [35S]-GTP-gamma binding to human Opioid receptor mu 1; Partial antagonist.
Test [9] has as its target T2, Mu-type opioid receptor. As to the kind of experiment: Agonist activity as stimulation of [35S]-GTP-gamma binding to human Opioid receptor mu 1; Antagonist.

The term Ki denotes a measure of affinity in units of concentration, obtained from inhibition or displacement. Read a low Ki as higher affinity. In the case of `O=S1(=O)Nc2ccccc2N1C1CCN(Cc2ccc(OCc3ccccc3)cc2)CC1`, the Ki in [1] and in test [2] was above 2000 nM throughout.

By EC50 is commonly meant the concentration giving half of the maximal effect. Lower therefore signals an effect from little substance. As for `CC(C)C1CCC(N2CCC(N3c4ccccc4CN(CC(=O)OC(C)(C)C)S3(=O)=O)CC2)CC1` (stereo not drawn), the half-maximal effective concentration (EC50) at Nociceptin receptor [3] is 484 nM; on Mu-type opioid receptor [5], “Partial agonist”. The Ki was 63 nM at Nociceptin receptor [4], above 2000 nM in [1], 289 nM at Mu-type opioid receptor [6] and above 2000 nM in [2].

`O=S1(=O)NCc2ccccc2N1C1CCN(Cc2ccc3ccccc3c2)CC1`: the EC50 is above 10000 nM at Mu-type opioid receptor [7] and 5590 nM at Nociceptin receptor [3]. In addition, the Ki at Nociceptin receptor [4] is 609 nM; in test [1] it was above 2000 nM; at Mu-type opioid receptor [6] it was 294 nM; in test [2], above 2000 nM.

On to `CCCC1CCC(N2CCC(N3c4ccccc4CNS3(=O)=O)CC2)CC1` (stereo not drawn), for which the EC50 is 3140 nM at Mu-type opioid receptor [7] and 1610 nM at Nociceptin receptor [3]. The Ki is 231 nM on Nociceptin receptor [4], above 2000 nM in test [1], 188 nM on Mu-type opioid receptor [6] and above 2000 nM in [2].

`CCCCN1Cc2ccccc2N(C2CCN(C3CCC(C(C)C)CC3)CC2)S1(=O)=O` (stereo not drawn): the EC50 on Mu-type opioid receptor [7] is above 10000 nM; on Nociceptin receptor [3] it was 78 nM. In addition, the figures for the Ki (in test [1]; on Mu-type opioid receptor [6]; in test [2]) were above 2000 nM, 38 nM and above 2000 nM, respectively.

In the case of `O=S1(=O)NCc2ccccc2N1C1CCN(CCC(c2ccccc2)c2ccccc2)CC1`, the EC50 at Mu-type opioid receptor [7] was 801 nM; at Nociceptin receptor [3] it was 1650 nM. The Ki at Nociceptin receptor [4] was 83 nM; in [1], above 2000 nM; on Mu-type opioid receptor [6], 13 nM; in test [2] it was above 2000 nM.

Consider `O=S1(=O)Nc2ccccc2N1C1CCN(Cc2ccc(-c3ccccc3)cc2)CC1`, for which the Ki on Nociceptin receptor [4] was above 10000 nM; in test [1] it was above 2000 nM; in test [2], above 2000 nM.

As to `CC(C)C1CCC(N2CCC(N3c4ccccc4CNS3(=O)=O)CC2)CC1` (stereo not drawn), the EC50 on Mu-type opioid receptor [7] was 799 nM and 620 nM; at Nociceptin receptor [3], 38 nM and 12 nM and 14 nM; at Mu-type opioid receptor [8], “Partial antagonist”. The Ki at Nociceptin receptor [4] is 6.1 nM and 2.6 nM and 3.7 nM; in test [1], above 2000 nM; on Mu-type opioid receptor [6] it was 207 nM and 89 nM and 112 nM; in [2], above 2000 nM.

With `O=S1(=O)NCc2ccccc2N1C1CCN(C2CCCCCCC2)CC1`, the results for the EC50 on Nociceptin receptor [3] and at Mu-type opioid receptor [9] were 2010 nM and “Antagonist”, respectively. Also, the Ki on Nociceptin receptor [4] is 187 nM; in test [1], above 2000 nM; at Mu-type opioid receptor [6], 1380 nM; in test [2] it was above 2000 nM.

For the molecule `CC(C)CCC(C)N1CCC(N2c3ccccc3CNS2(=O)=O)CC1` (stereo not drawn), the EC50 on Mu-type opioid receptor [7] was found to be 3160 nM; at Nociceptin receptor [3], 1580 nM. Further, the Ki is 40 nM at Nociceptin receptor [4], above 2000 nM in [1], 73 nM on Mu-type opioid receptor [6] and above 2000 nM in test [2].

For `O=S1(=O)Nc2ccccc2N1C1CCN(C2CCC3CCCCC3C2)CC1` (stereo not drawn), the EC50 on Nociceptin receptor [3] is 3360 nM; on Mu-type opioid receptor [8] it was “Partial antagonist”. The Ki in [1] is above 2000 nM; on Mu-type opioid receptor [6] it was 5550 nM; in test [2], above 2000 nM.

For the molecule `O=S1(=O)Nc2ccccc2N1C1CCN(C2CCc3ccccc3C2)CC1` (stereo not drawn), the Ki in test [1] and in [2] was above 2000 nM in each case.

Take `O=S1(=O)Nc2ccccc2N1C1CCN(CCC(c2ccccc2)c2ccccc2)CC1`: the Ki in [1] and in test [2] was above 2000 nM throughout.

Consider `O=S1(=O)Nc2ccccc2N1C1CCN(Cc2ccc3ccccc3c2)CC1`, for which the Ki was above 10000 nM at Nociceptin receptor [4], above 2000 nM in test [1] and above 2000 nM in [2].

Regarding `CC(C)C1CCC(N2CCC(N3c4ccccc4CN(CCO)S3(=O)=O)CC2)CC1` (stereo not drawn), the EC50 on Nociceptin receptor [3] is 33 nM; on Mu-type opioid receptor [5], “Partial agonist”. Moreover, the Ki in [1] is above 2000 nM; at Mu-type opioid receptor [6], 86 nM; in [2] it was above 2000 nM.

On to `CC(C)C1CCC(N2CCC(N3c4ccccc4CN(CC#N)S3(=O)=O)CC2)CC1` (stereo not drawn), for which the values for the half-maximal effective concentration (EC50) at Mu-type opioid receptor [7] and at Nociceptin receptor [3] were 344 nM and 227 nM, respectively. Besides, the Ki in test [1] is above 2000 nM; on Mu-type opioid receptor [6], 25 nM; in test [2], above 2000 nM.

On to `CCCC1CCC(N2CCC(N3c4ccccc4NS3(=O)=O)CC2)CC1` (stereo not drawn), for which the Ki in test [1] and in [2] was above 2000 nM each time.

With `O=S1(=O)NCc2ccccc2N1C1CCN(C2Cc3ccccc3C2)CC1`, the EC50 on Nociceptin receptor [3] is 496 nM; at Mu-type opioid receptor [9] it was “Antagonist”. The Ki is 46 nM on Nociceptin receptor [4], above 2000 nM in test [1], 660 nM on Mu-type opioid receptor [6] and above 2000 nM in test [2].

`O=S1(=O)NCc2ccccc2N1C1CCN(C2CCc3ccccc3C2)CC1` (stereo not drawn): the Ki is 2610 nM at Nociceptin receptor [4], above 2000 nM in test [1] and above 2000 nM in [2].

Take `CC(C)C1CCC(N2CCC(N3c4ccccc4CN(CCNS(C)(=O)=O)S3(=O)=O)CC2)CC1` (stereo not drawn): the EC50 is 34 nM on Nociceptin receptor [3] and “Partial agonist” at Mu-type opioid receptor [5]. Moreover, the values for the Ki (in [1]; at Mu-type opioid receptor [6]; in [2]) were above 2000 nM, 106 nM and above 2000 nM, respectively.

For `COC(=O)CN1Cc2ccccc2N(C2CCN(C3CCC(C(C)C)CC3)CC2)S1(=O)=O` (stereo not drawn), the EC50 was 166 nM on Nociceptin receptor [3] and “Partial agonist” on Mu-type opioid receptor [5]. The Ki in test [1] was above 2000 nM; at Mu-type opioid receptor [6], 182 nM; in test [2], above 2000 nM.

In the case of `O=S1(=O)NCc2ccccc2N1C1CCN(C2CCC3CCCCC3C2)CC1` (stereo not drawn), the EC50 on Mu-type opioid receptor [7] was 1470 nM; on Nociceptin receptor [3] it was 160 nM. Also, the Ki on Nociceptin receptor [4] was 28.7 nM; in [1] it was above 2000 nM; on Mu-type opioid receptor [6] it was 91.7 nM; in [2], above 2000 nM.

Regarding `CC(C)C1CCC(N2CCC(N3c4ccccc4CN(CC(N)=O)S3(=O)=O)CC2)CC1` (stereo not drawn), the 50% effective concentration (EC50) is 555 nM on Mu-type opioid receptor [7] and 22 nM on Nociceptin receptor [3]. The Ki was 3.9 nM at Nociceptin receptor [4], above 2000 nM in test [1], 92 nM at Mu-type opioid receptor [6] and above 2000 nM in test [2].

As to `O=S1(=O)NCc2ccccc2N1C1CCN(Cc2ccc(-c3ccccc3)cc2)CC1`, the Ki at Nociceptin receptor [4] is 9540 nM; in [1], above 2000 nM; in [2], above 2000 nM.

Turning to `O=S1(=O)NCc2ccccc2N1C1CCN(Cc2ccc(OCc3ccccc3)cc2)CC1`, the Ki at Nociceptin receptor [4] was 1880 nM; in test [1] it was above 2000 nM; in test [2], above 2000 nM.

On to `CC(C)C1CCC(N2CCC(N3c4ccccc4NS3(=O)=O)CC2)CC1` (stereo not drawn), for which the EC50 is 3070 nM on Nociceptin receptor [3] and “Partial antagonist” on Mu-type opioid receptor [8]. Besides, the figures for the Ki (in [1]; on Mu-type opioid receptor [6]; in [2]) were above 2000 nM, 748 nM and above 2000 nM, respectively.

`O=S1(=O)Nc2ccccc2N1C1CCN(C2Cc3ccccc3C2)CC1`: the Ki in test [1] and in [2] was above 2000 nM each time.

As for `O=S1(=O)Nc2ccccc2N1C1CCN(C2CCCCCCC2)CC1`, the Ki in [1] and in test [2] was above 2000 nM in each case.
